Chains of the proteins cited; added tags and fusions are not shown. Residues count along the entry.
UniProt P43235, 115-329 limits assumed: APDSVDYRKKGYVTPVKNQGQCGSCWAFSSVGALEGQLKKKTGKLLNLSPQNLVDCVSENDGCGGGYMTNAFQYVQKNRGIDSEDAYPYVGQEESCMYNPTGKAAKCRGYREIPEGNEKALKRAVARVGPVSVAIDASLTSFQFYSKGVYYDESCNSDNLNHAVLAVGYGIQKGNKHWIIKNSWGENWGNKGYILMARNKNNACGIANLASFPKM

According to US7846934B2, “Furo[3,2-B] pyrrol-3-one derivatives and their use as cysteinyl proteinase inhibitors” (Amura Therapeutics Limited, priority 2007, dated 2010):

Each compound was assayed against Human recombinant cathepsin K (Homo sapiens, UniProt P43235) (assay: In vitro cathepsin Ki inhibition measurements). Details: read-out: Ki (nM) vs Human Cathepsin K, Table 2, prior art WO-A-02057270 examples.
Assay type: biochemical

Structure (SMILES) | Ki
O=C(N[C@@H](Cc1ccc(F)cc1)C(=O)N1CC[C@H]2OCC(=O)[C@H]21)c1ccc(-c2cccs2)cc1 | > 17000 nM
O=C(N[C@@H](CC1CCCCC1)C(=O)N1CC[C@H]2OCC(=O)[C@H]21)c1ccoc1 | > 6000 nM
O=C(N[C@@H](Cc1ccc(O)cc1)C(=O)N1CC[C@H]2OCC(=O)[C@H]21)c1cccc2ccccc12 | > 15000 nM
O=C(N[C@@H](Cc1ccc(O)cc1)C(=O)N1CC[C@H]2OCC(=O)[C@H]21)c1ccsc1 | > 25000 nM
O=C(N[C@@H](Cc1ccccc1)C(=O)N1CC[C@H]2OCC(=O)[C@H]21)c1ccccc1 | > 7500 nM
O=C(CCc1ccccc1)N[C@@H](CSCc1ccccc1)C(=O)N1CC[C@H]2OCC(=O)[C@H]21 | > 20000 nM
O=C(CCc1ccccc1)N[C@@H](CC1CCCCC1)C(=O)N1CC[C@H]2OCC(=O)[C@H]21 | > 16000 nM

More lines, now with the values ahead:

Ki | Structure (SMILES)
> 1500 nM | CC(C)C[C@H](NC(=O)N1CCOCC1)C(=O)N1CC[C@H]2OCC(=O)[C@H]21
> 2500 nM | O=C(N[C@@H](Cc1ccccc1)C(=O)N1CC[C@H]2OCC(=O)[C@H]21)c1cc2ccccc2s1
> 1500 nM | O=C(N[C@@H](CC1CCCC1)C(=O)N1CC[C@H]2OCC(=O)[C@H]21)c1ccsc1
> 2500 nM | CC(C)(C)c1ccc(C(=O)N[C@@H](Cc2ccc(F)cc2)C(=O)N2CC[C@H]3OCC(=O)[C@H]32)cc1
> 4000 nM | O=C(N[C@@H](Cc1ccccc1)C(=O)N1CC[C@H]2OCC(=O)[C@H]21)c1ccsc1
